# Screens from PubChem.
# Wnt act: Wnt/beta-catenin pathway activators, primary screen, cell-based, plate reader, single point | Wnt/beta-catenin reporter cell assay, activator | hit rate 1.2% among 300,000 | activation, % at 9.35 µM; in the data active = activation above about 30%, passing the limit was not always enough; inconclusive = no clear call, values can overlap the other calls;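 note: 0% = neutral control wells and 100% = positive control wells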
# esBAF inh: Bmi1 luciferase reporter increase in mESCs, primary screen, esBAF inhibitor project, mouse ES cells, Bmi1 luciferase knock-in, single point; 24 h; 100% = twice the neutral-well signal; reporter increase, % at 12.5 µM; hit rate 2% among 350,000; AID 602393, 2012; in the data active = activation above about 40%; inconclusive = no clear call, values can overlap the other calls;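 note: 0% = median of the plate's neutral control wells and 100% = double that signal; a rise in the Bmi1 reporter signal indicates esBAF inhibition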
# miR-122 sensor: miR-122 Renilla sensor signal increase in Huh7, primary screen, miR-122 inhibitor project, cell-based, single point, plate reader. Huh7 miR-122 Renilla luciferase sensor, 48 h; neutral wells = 0, positive control = 100. AID 602342, 2012. hit rate 0.3% among 340,000. activation (reporter increase), % at 12.5 µM;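 active = mean replicate activation score at least 90 and every replicate individually at or above 90; inconclusive = only one of the two criteria met; inactive = neither criterion met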;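 note: higher luciferase means less miR-122 activity so hits act as miR-122 inhibitors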
# MITF act: activators of MITF-driven TRPM1 promoter reporter, primary screen, cell-based, SK-MEL-5, luciferase, single point; SK-MEL-5 TRPM1-promoter luciferase, 24 h; % of positive control, neutral wells = 0; activation, % at 12.5 µM; hit rate 0.75% among 300,000;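 active = mean activation of at least 80% with every replicate also reaching 80%; inconclusive = mean reaches 80% but some replicate falls short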;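 note: 0% = neutral control wells and 100% = parthenolide positive control wells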
# UUG fidelity: modulators of start codon recognition fidelity in yeast; AID 602363; hit rate 0.13% among 350,000; activity score, % at 18.7 µM; S. cerevisiae UUG-firefly luciferase reporter, luminescence/redox ratio;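 active = replicate mean at a twofold rise or more, about +100% in these data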;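 note: firefly luciferase made from a UUG start codon reports start codon fidelity; reporter light over untreated wells divided by growth signal over untreated wells; some hits fall short of that in this replicate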
# PglD inh: C. jejuni PglD acetyltransferase inhibitors, primary screen, biochemical, DTNB colorimetric, single point. UDP-N-acetylbacillosamine N-acetyltransferase PglD (Campylobacter jejuni). purified PglD enzyme, DTNB colorimetric CoA detection. inhibition, % at 12.5 µM. hit rate 0.098% among 360,000. AID 602405, 2012; in the data active = inhibition above about 16%, passing the limit was not always enough; inconclusive = no clear call, values can overlap the other calls
# Active calls of the source: *; ? = inconclusive; . = not tested or not shown; [ ] = dose if it differs, or a comment. In the library only some 2.8% were active in any assay of this set; here they are far more common.
# A first look:
[1] O=C(Nc1ccc(F)c([N+](=O)[O-])c1)c1ccc2c(c1)OCCO2
[2] Cc1ccc(C(=O)Nc2ccncc2)cc1[N+](=O)[O-]
[3] CC(=O)Nc1cccc(NC(=O)c2ccc(C)c([N+](=O)[O-])c2)c1
[4] O=C(Nc1ccccc1)N[C@@H]1CC[C@H](CCNS(=O)(=O)c2ccccc2F)O[C@H]1CO

assay / entry	1	2	3	4
Wnt act	20.3	-0.4	57.6*	.
esBAF inh	49.8*	2.1	15.7	-4.1
miR-122 sensor	.	.	12.9	.
MITF act	55.6	.	27.7	.
UUG fidelity	1.2	-29.2	.	-0.6
PglD inh	-3.9	3.0	.	-1.3

# The listing, repeating the preview:
[1] O=C(Nc1ccc(F)c([N+](=O)[O-])c1)c1ccc2c(c1)OCCO2
[2] Cc1ccc(C(=O)Nc2ccncc2)cc1[N+](=O)[O-]
[3] CC(=O)Nc1cccc(NC(=O)c2ccc(C)c([N+](=O)[O-])c2)c1
[4] O=C(Nc1ccccc1)N[C@@H]1CC[C@H](CCNS(=O)(=O)c2ccccc2F)O[C@H]1CO
[5] C/C(=N\NC(=O)c1ccc2ccccc2c1)c1cccs1
[6] C/C(=N\NC(=O)c1cccs1)c1ccc2ccccc2c1

assay / entry	1	2	3	4	5	6
Wnt act	20.3	-0.4	57.6*	.	41.5*	9.4
esBAF inh	49.8*	2.1	15.7	-4.1	5.0	52.3*
miR-122 sensor	.	.	12.9	.	-6.3	.
MITF act	55.6	.	27.7	.	38.4	65.7
UUG fidelity	1.2	-29.2	.	-0.6	-0.8	-18.3
PglD inh	-3.9	3.0	.	-1.3	-0.1	-2.5

[7] C[C@H](CO)N1C[C@H](C)[C@@H](CN(C)S(=O)(=O)c2ccccc2)Oc2ccc(NC(=O)Nc3ccc(F)cc3)cc2C1=O
[8] CCn1nc(C(=O)Nc2ccc(S(=O)(=O)Nc3nccs3)cc2)c2ccccc2c1=O
[9] O=C(Nc1ccc(S(=O)(=O)Nc2ncccn2)cc1)c1nn(Cc2ccccc2)c(=O)c2ccccc12
[10] CCCNC(=O)N1C[C@@H]2[C@H](c3ccccc31)[C@H](CO)N2Cc1cc(F)ccc1F
[11] CC(C)NC(=O)N(C)C[C@H]1Oc2ccc(NC(=O)CCC(F)(F)F)cc2CC(=O)N([C@H](C)CO)C[C@@H]1C
[12] Clc1ccc(-n2ncc3c(NCc4cccs4)ncnc32)cc1

assay / entry	7	8	9	10	11	12
Wnt act	.	-4.8	-3.2	.	.	.
esBAF inh	-1.3	.	-0.3	0.1	-1.6	31.4
miR-122 sensor	-5.9[16.7 µM]	92.7*	15.5	-4.5[16.7 µM]	-4.3[16.7 µM]	8.0
MITF act	.	-31.6	-7.4	.	.	.
UUG fidelity	-2.4	-6.4	17.1	-13.8	0.9	-13.8
PglD inh	5.3	2.4	9.2	-1.0	10.1	6.5

[13] Cc1cccc(-n2ncc3c(NCc4ccco4)ncnc32)c1
[14] Cc1cccc(-n2ncc3c(NCc4ccccn4)ncnc32)c1
[15] Cc1ccc(-n2ncc3c(NCc4ccco4)ncnc32)cc1C
[16] Cc1cccc(-n2ncc3c(NCc4cccs4)ncnc32)c1
[17] CN1C(=O)c2cc(NC(=O)NC3CCCC3)ccc2OC[C@H]2O[C@@H](CC(=O)O)CC[C@@H]21
[18] CN1[C@@H]2c3ccc(C4=CCCCC4)c(=O)n3C[C@H]1[C@H](CO)[C@H]2C(=O)NCc1cc(F)cc(F)c1

assay / entry	13	14	15	16	17	18
Wnt act	.	.	8.2	.	.	.
esBAF inh	81.6*	53.4*	.	55.9*	0.4	-5.2
miR-122 sensor	0.4	-1.9	.	20.2	0.0[16.7 µM]	.
MITF act	46.6	69.0	30.2	?	.	.
UUG fidelity	-11.5	-17.7	.	3.0	-1.3	.
PglD inh	0.5	-4.8	.	4.5	1.9	-1.1

[19] CC(=O)OC(C(=O)Nc1nccs1)c1ccccc1 (stereo unspecified)
[20] O=C(Nc1nccs1)OCc1ccccc1
[21] O=C(/C=C/c1cccs1)Nc1nccs1
[22] O=C(/C=C\c1ccccc1)Nc1nccs1
[23] O=C(NCc1ccccc1)C(=O)Nc1nccs1
[24] O=C(Nc1nccs1)C(Br)C(Br)c1ccccc1 (stereo unspecified)

assay / entry	19	20	21	22	23	24
Wnt act	0.5	34.3*	8.9	39.4*	1.1	37.1*
esBAF inh	1.3	.	.	.	5.1	14.1
miR-122 sensor	0.6	-3.6	.	2.0	-5.8	30.7
MITF act	.	.	67.6	34.5	21.1	54.1
UUG fidelity	-10.4	-24.6	.	-21.5	-9.2	-11.2
PglD inh	-1.9	-0.5	.	-3.6	-2.0	1.0

[25] O=C(/C=C/c1cccc(F)c1)Nc1nccs1
[26] COc1ccc(NC(=O)N(C)C[C@H]2Oc3ccc(NC(=O)CCC(F)(F)F)cc3CC(=O)N([C@@H](C)CO)C[C@H]2C)cc1
[27] CC(C)NC(=O)C1CCN(C(=O)c2ccc(-c3ccccc3)cc2)CC1
[28] Cc1ccc(Nc2nc(C(=O)N3CCC(C(=O)NC(C)C)CC3)cs2)cc1
[29] CC=Cc1ccc2n(c1=O)C[C@@H]1[C@@H](CO)[C@H](C(=O)Nc3ccc(-c4ccccc4)cc3)N(CC)[C@H]21 (mixture of isomers)
[30] CC=Cc1ccc2n(c1=O)C[C@@H]1[C@@H](CO)[C@H](C(=O)Nc3ccc(-c4ccccc4)cc3)N(C)[C@H]21 (mixture of isomers)

assay / entry	25	26	27	28	29	30
Wnt act	21.1	.	.	57.6*	.	.
esBAF inh	85.7*	-1.8	4.1	.	20.8	61.1*
miR-122 sensor	-0.7	-0.7[16.7 µM]	-2.5	-4.4	1.0[16.7 µM]	.
MITF act	58.5	.	8.9	9.9	.	.
UUG fidelity	-7.0	1.3	4.6	-6.7	-3.8	.
PglD inh	5.5	-0.6	2.7	0.9	-2.1	2.9

[31] CC=Cc1ccc2n(c1=O)C[C@H]1[C@H](CO)[C@@H](C(=O)Nc3ccc(-c4ccccc4)cc3)N(CC)[C@@H]21 (mixture of isomers)
[32] CC=Cc1ccc2n(c1=O)C[C@@H]1[C@@H](CO)[C@H](C(=O)Nc3ccc(-c4ccccc4)cc3)N(C(C)=O)[C@H]21 (mixture of isomers)
[33] Cc1cccc(N/N=C/c2ccncc2)c1
[34] Cc1cccc(NC(=O)C(=O)N/N=C/c2ccncc2)c1
[35] CC(C)NC(=O)N(C)C[C@H]1Oc2c(NC(=O)c3cnccn3)cccc2C(=O)N([C@H](C)CO)C[C@@H]1C
[36] COc1cccc(NC2SC(=O)N(c3ccccc3)C2=O)c1 (stereo unspecified)

assay / entry	31	32	33	34	35	36
Wnt act	.	.	13.3	-3.0	.	25.2
esBAF inh	46.2*	3.8	37.2	.	-2.1	59.2*
miR-122 sensor	8.6[16.7 µM]	1.4[16.7 µM]	.	.	-5.8[16.7 µM]	-0.8
MITF act	.	.	129.1*	-8.7	.	.
UUG fidelity	-2.9	.	-5.8	.	0.5	-13.9
PglD inh	-2.3	0.3	2.0	.	-6.1	-6.1

[37] CC1(C)N([O-])C(c2cccs2)=C[N+]1=O
[38] C[C@H]1CN([C@@H](C)CO)C(=O)Cc2cc(NC(=O)CCCCCC(=O)Nc3ccccc3N)ccc2O[C@@H]1CN(C)S(=O)(=O)c1ccc(Cl)cc1
[39] CC1CCN(CC(=O)Nc2ccc(Br)cc2[N+](=O)[O-])CC1
[40] O=C(CN1CCCCC1)Nc1ccc(Br)cc1[N+](=O)[O-]
[41] C[C@@H]1CCCCO[C@@H](CN(C)C(=O)Nc2ccc(F)cc2)[C@@H](C)CN([C@H](C)CO)C(=O)c2cc(NC(=O)CCCN(C)C)ccc2O1
[42] O=C1c2ccccc2S(=O)(=O)N1CC1CC(c2ccccc2Cl)=NO1 (stereo unspecified)
[43] COc1ccccc1C1=NOC(CN2C(=O)c3ccccc3S2(=O)=O)C1 (stereo unspecified)
[44] COc1ccccc1C1=NOC(COC(=O)c2ccc([N+](=O)[O-])cc2)C1 (stereo unspecified)
[45] O=C(Nc1nccs1)[C@@H]1[C@@H](CO)[C@@H]2Cn3c(cccc3=O)[C@H]1N2C(=O)C1CC1

assay / entry	37	38	39	40	41	42	43	44	45
Wnt act	.	.	1.4	0.3	.	93.4*	36.9*	41.0*	.
esBAF inh	-6.9	4.7	16.9	49.4*	-0.9	14.0	.	.	-6.3
miR-122 sensor	103.0*	-1.1[16.7 µM]	-10.1	0.6	16.3[16.7 µM]	-2.0	.	-5.6	-6.0[16.7 µM]
MITF act	.	.	16.2	23.2	.	94.2*	103.6*	.	.
UUG fidelity	-12.2	.	-0.1	-12.4	-3.3	-18.0	.	-12.2	1.5
PglD inh	-2.4	.	3.2	3.3	1.8	-3.2	.	2.9	-0.3
